Test results reported in patent publication US20070032443A1, “Therapy for Alzheimer's disease” (priority 2005, published 2007).

Tested on: APP cleavage through the action of beta and gamma secretase in HEK293 cells overexpressing BACE/swAPP
Experiment: Abeta 1-40 enzyme immunoassay of culture medium from HEK293 cells overexpressing BACE/swAPP (APP cleavage)
Format: cell-based, human
Conditions: 6 days of culture, control without compound 107.1; for Abeta 1-40 in medium (reduction of APP cleavage), dilution of test compound 10^−3: 10^−3 dilution of working concentration of Table 4 (A 1.8, B 2.0, C 0.3, D 0.1 millimolar); for Abeta 1-40 in medium (reduction of APP cleavage), dilution of test compound 10^−4: 10^−4 dilution of working concentration of Table 4 (A 1.8, B 2.0, C 0.3, D 0.1 millimolar)

`NCCCC(O)(P(=O)(O)O)P(=O)(O)O` [A, alendronate sodium] was tested, and the “Abeta 1-40 in medium (reduction of APP cleavage), dilution of test compound 10^−3” value was 47.9 picograms per milliliter and the “Abeta 1-40 in medium (reduction of APP cleavage), dilution of test compound 10^−4” value was 58.4 picograms per milliliter.
`CC(O)(P(=O)(O)O)P(=O)(O)O` [B, etidronatic acid] was tested, and the “Abeta 1-40 in medium (reduction of APP cleavage), dilution of test compound 10^−3” value was 34.4 picograms per milliliter and the “Abeta 1-40 in medium (reduction of APP cleavage), dilution of test compound 10^−4” value was 49.6 picograms per milliliter.
In the case of `O=P(O)(O)C(O)(Cc1cccnc1)P(=O)(O)O` [Compound C, risedronate sodium], the “Abeta 1-40 in medium (reduction of APP cleavage), dilution of test compound 10^−3” value is reported as 59.4 picograms per milliliter and the “Abeta 1-40 in medium (reduction of APP cleavage), dilution of test compound 10^−4” value is reported as 64.0 picograms per milliliter.
For `O=P(O)(O)C(O)(Cn1ccnc1)P(=O)(O)O` [Compound D, zolendronic acid], the “Abeta 1-40 in medium (reduction of APP cleavage), dilution of test compound 10^−4” value was 1.9 picograms per milliliter.
